Experimental data reported in ChEMBL document CHEMBL1156629, “Synthesis and discovery of high affinity folate receptor-specific glycinamide ribonucleotide formyltransferase inhibitors with antitumor activity” (J Med Chem, 2008).

Assay: cells
Conditions: Cricetulus griseus, RT16

`CN(Cc1cnc2nc(N)nc(N)c2n1)c1ccc(C(=O)N[C@@H](CCC(=O)O)C(=O)O)cc1` [METHOTREXATE] gave an IC50 of 461 nM.
